Values joined by “and” are separate entries in the source; they are usually repeats but may differ in a detail not shown here. Identical values can stand only once. The list shows a part of the results, in another mix than the full data. Records with an inconclusive call do not appear. Active and inactive are the calls of the source. Unless noted, the call rests on the fitted dose curve.
Tests used:
[1] = Nuclear factor erythroid 2-related factor 2/antioxidant responsive element (Nrf2/ARE) small molecule agonists: qHTS cell viability counter screen in human keratinocytes (AID 1919968; active means well fitted curve in the direction sought with a large enough effect in the repeat runs; an effect the other way counts as inactive or inconclusive; further: nearly all actives have a fitted effect of over 55% in size); conditions: KeratinoSens HaCaT ARE cells viability, CellTiter-Fluor, 24 h; at 92.4 µM (top of the series) unless noted
Summary of the method: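 KeratinoSens HaCaT cells, 1,500/well, preincubated 5 h, then exposed to compounds in DMSO for 23 h at 37 C/5% CO2. Viability read as CellTiter-Fluor fluorescence after 1 h, in the same wells as the ARE-luciferase read.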

Chains of the proteins cited; added tags and fusions are not shown.
UniProt P30968, whole entry: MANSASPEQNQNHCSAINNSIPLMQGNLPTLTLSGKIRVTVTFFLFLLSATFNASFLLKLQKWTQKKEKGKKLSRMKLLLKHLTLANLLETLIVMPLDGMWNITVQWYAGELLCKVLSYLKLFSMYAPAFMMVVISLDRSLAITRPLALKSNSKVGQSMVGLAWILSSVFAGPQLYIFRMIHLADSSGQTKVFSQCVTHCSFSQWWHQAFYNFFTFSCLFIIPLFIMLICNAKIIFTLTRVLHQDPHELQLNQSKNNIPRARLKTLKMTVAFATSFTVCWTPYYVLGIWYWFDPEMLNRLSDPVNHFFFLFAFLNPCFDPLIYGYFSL
UniProt Q969F8, whole entry: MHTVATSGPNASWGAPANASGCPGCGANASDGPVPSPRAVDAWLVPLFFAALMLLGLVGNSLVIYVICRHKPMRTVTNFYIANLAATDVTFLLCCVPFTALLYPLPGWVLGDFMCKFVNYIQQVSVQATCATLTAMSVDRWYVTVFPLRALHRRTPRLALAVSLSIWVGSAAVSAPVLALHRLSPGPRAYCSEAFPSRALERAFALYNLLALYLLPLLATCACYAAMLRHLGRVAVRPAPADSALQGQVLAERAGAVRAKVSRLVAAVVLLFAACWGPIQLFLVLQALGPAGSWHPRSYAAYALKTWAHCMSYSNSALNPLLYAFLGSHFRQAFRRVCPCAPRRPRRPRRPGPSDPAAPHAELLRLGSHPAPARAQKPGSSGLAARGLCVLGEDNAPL
UniProt P28223, whole entry: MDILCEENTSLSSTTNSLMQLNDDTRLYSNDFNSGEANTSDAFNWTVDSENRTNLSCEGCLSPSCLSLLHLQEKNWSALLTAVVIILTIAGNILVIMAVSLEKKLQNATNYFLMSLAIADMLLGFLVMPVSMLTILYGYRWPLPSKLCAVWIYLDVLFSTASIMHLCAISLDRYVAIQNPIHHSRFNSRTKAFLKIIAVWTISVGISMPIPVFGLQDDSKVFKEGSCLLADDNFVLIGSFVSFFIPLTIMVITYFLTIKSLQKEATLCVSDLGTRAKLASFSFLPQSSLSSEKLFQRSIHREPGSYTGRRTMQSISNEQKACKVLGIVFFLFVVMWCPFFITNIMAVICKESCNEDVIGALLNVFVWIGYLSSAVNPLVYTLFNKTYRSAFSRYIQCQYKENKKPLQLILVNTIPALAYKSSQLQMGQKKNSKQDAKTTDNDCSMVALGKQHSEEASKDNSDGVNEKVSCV
UniProt P11229, whole entry: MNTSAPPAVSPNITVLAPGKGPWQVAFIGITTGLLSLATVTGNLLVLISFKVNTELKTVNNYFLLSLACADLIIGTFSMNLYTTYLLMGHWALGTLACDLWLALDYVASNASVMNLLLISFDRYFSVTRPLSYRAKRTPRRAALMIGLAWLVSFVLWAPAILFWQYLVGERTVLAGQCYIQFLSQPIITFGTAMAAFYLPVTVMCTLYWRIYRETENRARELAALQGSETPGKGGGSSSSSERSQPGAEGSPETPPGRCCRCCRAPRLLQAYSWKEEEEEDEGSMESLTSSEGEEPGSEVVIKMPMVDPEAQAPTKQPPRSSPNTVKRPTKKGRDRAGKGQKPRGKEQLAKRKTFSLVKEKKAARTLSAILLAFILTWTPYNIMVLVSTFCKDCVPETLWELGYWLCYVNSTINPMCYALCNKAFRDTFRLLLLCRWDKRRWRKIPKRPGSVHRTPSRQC
UniProt P07550, whole entry: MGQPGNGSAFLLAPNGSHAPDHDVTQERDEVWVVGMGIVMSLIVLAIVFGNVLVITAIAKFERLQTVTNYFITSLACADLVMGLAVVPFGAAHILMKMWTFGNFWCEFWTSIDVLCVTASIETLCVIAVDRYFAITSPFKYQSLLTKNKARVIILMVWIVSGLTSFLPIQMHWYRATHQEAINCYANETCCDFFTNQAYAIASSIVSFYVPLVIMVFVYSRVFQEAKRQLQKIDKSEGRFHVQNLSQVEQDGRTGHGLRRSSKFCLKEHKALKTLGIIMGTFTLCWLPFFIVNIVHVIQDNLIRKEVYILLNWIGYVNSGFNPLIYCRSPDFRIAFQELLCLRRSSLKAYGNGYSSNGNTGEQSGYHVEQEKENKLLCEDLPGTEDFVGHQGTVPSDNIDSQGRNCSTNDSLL
UniProt P14416, whole entry: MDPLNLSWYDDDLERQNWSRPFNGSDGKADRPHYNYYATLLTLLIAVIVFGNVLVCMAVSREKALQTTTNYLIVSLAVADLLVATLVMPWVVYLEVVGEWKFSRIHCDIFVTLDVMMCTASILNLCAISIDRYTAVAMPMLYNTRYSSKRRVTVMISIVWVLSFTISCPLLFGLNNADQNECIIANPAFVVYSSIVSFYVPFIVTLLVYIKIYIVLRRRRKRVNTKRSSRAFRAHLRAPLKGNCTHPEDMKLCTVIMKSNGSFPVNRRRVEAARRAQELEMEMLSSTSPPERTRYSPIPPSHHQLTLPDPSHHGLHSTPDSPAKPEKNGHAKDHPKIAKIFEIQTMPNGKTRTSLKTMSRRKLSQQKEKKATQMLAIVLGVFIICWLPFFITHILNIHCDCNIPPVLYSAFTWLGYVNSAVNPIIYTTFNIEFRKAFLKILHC

[2] = target: Gonadotropin-releasing hormone receptor (Homo sapiens) (UniProt P30968); assay: Human gonadotropin-releasing hormone receptor (GnRHR) small molecule agonists, calcium flux assay in GnRHR-HEK293 cells (AID 1920063); conditions: calcium flux fluorescence, agonist mode, stronger effect = higher value; at 57.6 µM (top of the series) unless noted; further: nearly all actives have a fitted effect of over 35% in size
Summary of the method: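 HEK293 cells stably expressing human GnRHR were dye-loaded for 1 h at 37 C. Compound was added in agonist mode and fluorescence (Ex/Em 480/540) recorded kinetically for 3 min. Fifteen concentrations, triplicates.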

[3] = target: KiSS-1 receptor (Homo sapiens) (UniProt Q969F8); assay: Human kisspeptin (KISS1R) small molecule agonists, calcium flux assay in KISS1R-HEK293 cells (AID 1920064; active means well fitted curve in the direction sought with a large enough effect in the repeat runs; an effect the other way counts as inactive or inconclusive); conditions: KISS1R-HEK293, calcium flux fluorescence, agonist; at 76.8 µM (top of the series) unless noted
Summary of the method: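 HEK293 cells stably expressing human KISS1R were loaded with calcium dye for 1 h at 37 C, then given compound; fluorescence (Ex/Em 480/540) was read kinetically for 3 min. Fifteen concentrations, triplicate.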

[4] = G protein-coupled receptor (GPCR) small molecule agonists, calcium flux assay: HEK293 wild type cell line counter screen (AID 1920065); conditions: HEK293 WT calcium flux, fluorescence, agonist mode; at 57.6 µM (top of the series) unless noted
Summary of the method: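 Wild-type HEK293 cells plated 18 h, loaded with calcium dye 1 h at 37 C, then compounds added in agonist mode (ATP as positive control). Kinetic fluorescence Ex/Em 480/540 recorded 3 min at 1 sec intervals; 15 concentrations, triplicate.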

[5] = p53 small molecule agonists, cell-based qHTS assay with human liver microsomes (AID 1963577); conditions: HCT-116 p53RE-bla with human liver microsomes, ratio, 16 h; at 66 µM (top of the series) unless noted;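 further: p53 response element beta-lactamase reporter cells with liver microsomes plus NADPH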
Summary of the method: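 In this qHTS, p53 response-element beta-lactamase cells receive test compound together with a microsome/NADPH activating system (0.5 mg/mL final each) and are incubated 16 h at 37 C before LiveBLAzer fluorescence detection.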

[6] = p53 small molecule agonists, cell-based qHTS assay with rat liver microsomes (AID 1963578); conditions: HCT-116 p53RE-bla, beta-lactamase ratio, 16 h; at 66 µM (top of the series) unless noted
Summary of the method: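 Agonist mode in p53RE-bla reporter cells, with compounds co-incubated 16 h at 37 C alongside 0.5 mg/mL rat liver microsomes and 0.5 mg/mL NADPH (final), followed by a 2 h LiveBLAzer detection step.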

[7] = p53 small molecule agonists, cell-based qHTS assay with human liver microsomes: qHTS cell viability counter screen (AID 1963579); conditions: p53RE-bla HCT-116 viability, ATP luminescence, 16 h, HLM; at 66 µM (top of the series) unless noted; further: nearly all actives have a fitted effect of over 45% in size
Summary of the method: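 Metabolically activated exposure: compounds, human liver microsomes and NADPH (0.5 mg/mL final apiece) were added to p53RE-bla cells seeded 5 h earlier, left 16 h at 37 C, and then assessed for viability by CellTiter-Glo luminescence.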

[8] = p53 small molecule agonists, cell-based qHTS assay with rat liver microsomes: qHTS cell viability counter screen (AID 1963580); conditions: p53RE-bla HCT-116 + rat microsomes, ATP viability, 16 h; at 66 µM (top of the series) unless noted; further: nearly all actives have a fitted effect of over 45% in size
Summary of the method: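 Intracellular ATP, by CellTiter-Glo luminescence, defines viability. HCT-116 p53RE-bla cells, 4,000 per well, were compound-treated in the presence of rat liver microsomes and NADPH for 16 h at 37 C.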

[9] = p53 small molecule agonists, cell-based qHTS assay: qHTS cell viability counter screen (AID 1963581); conditions: p53RE-bla HCT-116 viability, ATP luminescence, 16 h; at 66 µM (top of the series) unless noted; further: nearly all actives have a fitted effect of over 45% in size
Summary of the method: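 p53RE-bla HCT-116 cells, compounds added 5 h after plating and incubated 16 h at 37 C. Cytotoxicity measured in the same wells as intracellular ATP by CellTiter-Glo luminescence after 30 min at room temperature.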

[10] = p53 small molecule agonists, cell-based qHTS assay (AID 1963582; active means well fitted activation curve with a large enough effect in the signal ratio in the repeat runs, not every such curve was filed as active; the % refers to the signal ratio); conditions: HCT-116 p53RE-bla reporter, beta-lactamase FRET ratio, 16 h; at 66 µM (top of the series) unless noted
Summary of the method: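 p53RE-bla reporter cells, compounds added in DMSO after 5 h plating, incubated 16 h at 37 C. Beta-lactamase read via 2 h room-temperature LiveBLAzer B/G FRET substrate, fluorescence intensity.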

[11] = target: 5-hydroxytryptamine receptor 2A (Homo sapiens) (UniProt P28223); assay: 5-hydroxytryptamine receptor 2A (HTR2A) small molecule antagonists, cell-based qHTS assay (AID 1963586); conditions: HTR2A-CHO cells, DOI-induced calcium flux, fluorescence; at 61.5 µM (top of the series) unless noted; further: nearly all actives have a fitted effect of over 45% in size
Summary of the method: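 Antagonist-mode intracellular calcium assay: DOI (4 nM) added after 5 min compound pre-incubation at room temperature to dye-loaded HTR2A-CHO cells. Fluorescence followed for 3 min, sampled every second.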

[12] = target: 5-hydroxytryptamine receptor 2A (Homo sapiens) (UniProt P28223); assay: 5-hydroxytryptamine receptor 2A (HTR2A) small molecule agonists, cell-based qHTS assay (AID 1963587); conditions: HTR2A-CHO cells, calcium flux fluorescence, agonist mode; at 76.8 µM (top of the series) unless noted; further: nearly all actives have a fitted effect of over 30% in size
Summary of the method: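 Kinetic calcium-flux fluorescence (2 min, 1 sec intervals) after compound addition in agonist mode. HTR2A-CHO cells were cultured 18 h, then dye-loaded 1 h at 37 C.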

[13] = target: Muscarinic acetylcholine receptor M1 (Homo sapiens) (UniProt P11229); assay: Cholinergic receptor muscarinic 1 (CHRM1) small molecule antagonists, cell-based qHTS assay (AID 1963588); conditions: CHRM1-CHO antagonist mode, calcium flux fluorescence; at 61.5 µM (top of the series) unless noted; further: nearly all actives have a fitted effect of over 40% in size
Summary of the method: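 CHRM1-CHO calcium-flux assay, antagonist mode. Cells were seeded 18 h, dye-loaded 1 h at 37 C and given compound for 5 min at RT, then acetylcholine was added at 50nM. FDSS fluorescence was read 3 min; 15 concentrations, three runs.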

[14] = target: Muscarinic acetylcholine receptor M1 (Homo sapiens) (UniProt P11229); assay: Cholinergic receptor muscarinic 1 (CHRM1) small molecule agonists, cell-based qHTS assay (AID 1963589); conditions: CHRM1-CHO cells, agonist mode, calcium flux fluorescence; at 76.8 µM (top of the series) unless noted; further: nearly all actives have a fitted effect of over 35% in size
Summary of the method: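 CHO cells stably expressing human CHRM1 were loaded with calcium dye for 1 h at 37 C, then compound was added in agonist mode. Intracellular calcium fluorescence was followed kinetically at 1 s intervals. Fifteen concentrations were tested in three independent runs.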

[15] = cAMP Responsive Elements (CRE) small molecule agonists, cell-based qHTS assay (AID 1963590); conditions: CRE-bla HEK293T, beta-lactamase FRET ratio, 3 h; at 92.4 µM (top of the series) unless noted
Summary of the method: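 CRE-bla HEK 293T cells, 2,000/well in DMEM with 10% dialyzed FBS and 25 mM HEPES, pre-incubated 18 h at 37 C, then exposed to compound 3 h at 37 C. Beta-lactamase reporter read with LiveBLAzer B/G FRET substrate after 2 h at room temperature.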

[16] = cAMP Responsive Elements (CRE) small molecule antagonists, cell-based qHTS assay (AID 1963591; active means well fitted inhibition curve with a large enough effect in the signal ratio in the repeat runs, not every such curve was filed as active; the % refers to the signal ratio); conditions: CRE-bla HEK293T, beta-lactamase FRET ratio; at 92.4 µM (top of the series) unless noted
Summary of the method: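 CRE-bla HEK293T cells plated 18 h, then given compound plus NKH477 at 0.25 uM final for 3 h at 37C. Beta-lactamase reporter read with LiveBLAzer B/G FRET substrate after 2 h at room temperature.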

[17] = target: Beta-2 adrenergic receptor (Homo sapiens) (UniProt P07550); assay: Adrenergic beta2 receptor (ADRB2) small molecule antagonists, cell-based qHTS assay (AID 1963592); conditions: CHO-ADRB2 cells, isoproterenol-stimulated cAMP HTRF ratio, 0.5 h; at 92.4 µM (top of the series) unless noted; further: nearly all actives have a fitted effect of over 50% in size
Summary of the method: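 Cells (CHO, stable ADRB2 overexpression) incubated 18-20hr at 37C; compounds added from DMSO; agonist mix (1nM isoproterenol, 100uM IBMX, 25uM Ro-20-1724) added; 0.5hr RT; d2-cAMP and anti-cAMP-cryptate added; 1hr RT; 665/615 nm read.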

[18] = target: D(2) dopamine receptor (Homo sapiens) (UniProt P14416); assay: Dopamine D2 receptor (DRD2) small molecule agonists, cell-based qHTS assay (AID 1963594); conditions: HEK293-DRD2 cAMP HTRF, agonist mode, 30 min; at 92.4 µM (top of the series) unless noted; further: nearly all actives have a fitted effect of over 35% in size
Summary of the method: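 cAMP accumulation in DRD2-HEK293 cells measured by HTRF after 1 h detection; compounds added 10 min before NKH477 (200nM […]) forskolin-analogue stimulation, 30 min at room temperature, with Ro20-1724 present at 0.1 mM final.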

[19] = target: D(2) dopamine receptor (Homo sapiens) (UniProt P14416); assay: Dopamine D2 receptor (DRD2) small molecule antagonists, cell-based qHTS assay (AID 1963595; active means well fitted inhibition curve with a large enough effect in the signal ratio in the repeat runs, with a control signal flat; the % refers to the signal ratio); conditions: HEK293-DRD2 cAMP HTRF antagonist mode; at 92.4 µM (top of the series) unless noted
Summary of the method: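 Readout: HTRF cAMP, cAMP-d2 competing with cellular cAMP for anti-cAMP cryptate, read after 1 h. Cells: DRD2-HEK293. Conditions: 0.1 mM Ro20-1724, 12 nM quinpirole, 200 nM NKH477, 30 min RT.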

[20] = Nuclear factor erythroid 2-related factor 2/antioxidant responsive element (Nrf2/ARE) small molecule agonists: luciferase reporter gene qHTS assay in human keratinocytes (AID 1919969); conditions: KeratinoSens HaCaT ARE-luciferase, luminescence, 24 h; at 92.4 µM (top of the series) unless noted; further: nearly all actives have a fitted effect of over 35% in size
Excerpt: National Center for Advancing Translational Sciences [NCATS]
Division of Preclinical Innovation [DPI]
U.S. Environmental Protection Agency [EPA]
National Institutes of Environmental Health Sciences [NIEHS]
National Toxicology Program [NTP]
U.S. Food and Drug Administration [FDA]
Oxidative stress has been implicated in the pathogenesis of a variety of diseases ranging from cancer to neurodegeneration. The antioxidant response element (ARE) signaling pathway plays an important role in the amelioration of oxidative stress. The KeratinoSens (Givaudan, Switzerland) is an in vitro test method which quantifies luciferase induction as a measure of activation of Keap1-Nrf2-antioxidationt/electrophile response element (ARE) dependant pathway in HaCaT human keratinocytes stably transfected with a selectable plasmid. The KeratinoSens assay is a cell-based assay with a reporter cell line to detect potential skin sensitizers by their ability to induce the Nrf2/ARE-response. The activation of the report gene under culture conditions can be detected by ONE-Glo Luciferase Assay System (Promega, Madison, WI). This cell line has been used to screen the Tox21 10K compound library to identify agonists that induce oxidative stress. The cytotoxicity of the Tox21 compound library against the KS-ARE cell line was tested in parallel by measuring the cell viability using CellTiter- Fluor assay system (Promega, Madison, WI) in the same wells.
HaCaT derived cell line KeratinoSens were dispensed at 1,500 cells/5uL/well in 1536-well white wall/solid bottom plates using a Multidrop Combi (ThermoFisher Scientific, Waltham, MA) dispenser. After the assay plates were incubated at 37 C/5% CO2 for 5 h, 23 nL of compounds dissolved in DMSO, positive controls or DMSO only was transferred to the assay plate by a pintool workstation (Kalypsys, San Diego, CA). The plates were incubated at 37 C/5% CO2 for 23 h, followed by addition of 1uL/well of CellTiter-Fluor reagent into the assay plates using a Flying Reagent Dispenser (Aurora Discovery, San Diego, CA) for cell viability readout that measures cytotoxicity. After 1 h incubation at 37 C/5% CO2 the fluorescence intensity was measured using a ViewLux (PerkinElmer, Shelton, CT) plate reader. Then 4uL/well of One-Glo were added using a Flying Reagent Dispenser. After the plates were incubated at room temperature for 30 min, the luminescence intensity in the assay plates was measured using ViewLux plate reader.
On the % scale 0 is the no-effect control and ±100 the full control effect.

CCOP(=S)(Cl)OCC
inactive: activity change, negative = cytotoxicity [1] -4.1% | activity change [2] -1.86% | activation [3] 0.958% | activation [4] -0.933% | activation [5] 1.49% | activation [6] -2.38% | activity change, negative = cytotoxicity [7] -0.788% | activity change, negative = cytotoxicity [8] 0.646% | activity change, negative = cytotoxicity [9] 0% | activation [10] -6.91% | activity, negative = inhibition [11] 15.5% | activation [12] 0.591% | activity, negative = inhibition [13] 2.51% | activation [14] -0.104% | activation [15] 2.64% | activity change, negative = inhibition [16] 0.126% | activity change, negative = inhibition [17] -8.91% | activation [18] -0.0389% | activity change, negative = inhibition [19] 10.2%

CCOP(=O)(Cl)Cl
inactive: activity change, negative = cytotoxicity [1] 6.37% and 1.8% | activity, positive = activation [20] -7.89% | activity change [2] -0.669% and -0.0069% | activation [3] -4.67% and -2.71% | activation [4] -0.302% and 0.092% | activation [5] 0.0321% and 1.85% | activation [6] 0.166% and -3.26% | activity change, negative = cytotoxicity [7] -0.412% and 5.63% | activity change, negative = cytotoxicity [8] 6.72% and 4.95% | activity change, negative = cytotoxicity [9] -1.97% and -15.4% | activation [10] -7.99% and -2.41% | activity, negative = inhibition [11] 12% and 5.15% | activation [12] 2.72% and -4.33% | activity, negative = inhibition [13] 3.02% and -8.6% | activation [14] 0.174% and -0.452% | activation [15] -0.0762% | activity change, negative = inhibition [16] 16.1% and -5.52% | activity change, negative = inhibition [17] 3.24% and 0.895% | activation [18] 3.08% and -0.123% | activity change, negative = inhibition [19] 7.9% and 3.07%
